These results are taken from PubChem BioAssay AID435022 (Sanford-Burnham Center for Chemical Genomics, 2010).

One may read the inhibition as the drop in the measured response relative to a control, in per cent.

Each structure is given as a SMILES string. This is a selection; strong and weak results do not stand in their true shares. The source made the active and inactive calls. No stated cut-off is given here; in the data, active means inhibition above about 35%; inactive means the rest.

This experiment is described as follows: inhibitors of PMA/ionomycin-induced NF-kB reporter, 697 cells, primary screen, B-cell NF-kB inhibitor project, cell-based, luminescence, uHTS (AID 435022). Particulars: 697 B-cell NF-kB luciferase reporter, 16 h, at 4 µM, active compounds read high. In general terms: A reporter such as luciferase makes a cellular process visible.
In the case of `CCC(=O)N(c1ccccc1)C1(COC)CCN(CCn2nnn(CC)c2=O)CC1`, the inhibition was inactive: 11.2%.

As to `CCC(=O)N(c1ccccc1)C1(COC)CCN(CCc2cccs2)CC1`, the inhibition is inactive: -5.04%.
